Data as given in PMC11272584 (Nature Metabolism, 2024).
Positions count from the first letter of the chain named.

What was measured:
[1] = target: T1, GIPR T168A (Homo sapiens, UniProt P48546, T168A); test: cAMP accumulation; assay type: cell-based; set-up: host or cells: HEK293
T1 sequence (P48546 22-466 T168A): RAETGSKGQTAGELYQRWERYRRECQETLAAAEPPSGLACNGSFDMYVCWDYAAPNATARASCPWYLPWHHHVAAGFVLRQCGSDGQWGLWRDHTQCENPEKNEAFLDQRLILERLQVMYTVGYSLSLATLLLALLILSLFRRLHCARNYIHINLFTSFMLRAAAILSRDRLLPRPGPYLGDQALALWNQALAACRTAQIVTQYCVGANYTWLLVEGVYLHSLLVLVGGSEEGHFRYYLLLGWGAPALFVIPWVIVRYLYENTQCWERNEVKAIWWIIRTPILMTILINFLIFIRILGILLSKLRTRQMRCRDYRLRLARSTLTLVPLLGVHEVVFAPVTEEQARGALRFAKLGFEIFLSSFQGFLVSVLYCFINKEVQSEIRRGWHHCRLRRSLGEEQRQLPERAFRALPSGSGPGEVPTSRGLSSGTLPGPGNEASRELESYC

[2] = target: T2, GIPR R164Q (Homo sapiens, UniProt P48546, R164Q); settings: HEK293A, 1 µM GIP minus vehicle, n = 4, P = 0.0591
T2 sequence (P48546 22-466 R164Q): T1 sequence (P48546 22-466 T168A) with R143Q, A147T

[3] = target: T3, GIPR E291K (Homo sapiens, UniProt P48546, E291K); settings: GIPR E291K (ECL2), mean, n = 3, duplicate
T3 sequence (P48546 22-466 E291K): T1 sequence (P48546 22-466 T168A) with A147T, E270K

[4] = target: T2, GIPR R164Q; test: cAMP accumulation; assay type: cell-based; set-up: host or cells: HEK293
[5] = target: T4, GIPR E418K (Homo sapiens, UniProt P48546, E418K); settings: GIPR E418K (ICD), mean, n = 3, duplicate
T4 sequence (P48546 22-466 E418K): T1 sequence (P48546 22-466 T168A) with A147T, E397K

[6] = target: T5, GIPR E461* (Homo sapiens, UniProt P48546); test: cAMP accumulation; assay type: cell-based; set-up: host or cells: HEK293
T5 sequence (P48546 22-460 limits assumed): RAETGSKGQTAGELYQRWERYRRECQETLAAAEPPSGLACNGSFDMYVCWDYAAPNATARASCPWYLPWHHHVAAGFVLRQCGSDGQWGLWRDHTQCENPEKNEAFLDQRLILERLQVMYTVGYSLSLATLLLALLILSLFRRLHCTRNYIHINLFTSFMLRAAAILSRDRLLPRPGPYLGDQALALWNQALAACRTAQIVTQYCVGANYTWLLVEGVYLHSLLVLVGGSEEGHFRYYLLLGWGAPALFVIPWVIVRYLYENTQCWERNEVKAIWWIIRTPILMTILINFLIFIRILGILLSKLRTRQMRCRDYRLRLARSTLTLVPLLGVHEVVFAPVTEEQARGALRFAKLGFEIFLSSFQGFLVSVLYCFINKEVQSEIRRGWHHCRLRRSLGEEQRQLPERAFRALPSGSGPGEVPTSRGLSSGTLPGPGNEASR

For “glucose-dependent insulinotropic polypeptide [GIP]”, the “cAMP (Emax)” value ([1]; HEK293, GIP(1–42) 1 pM–100 nM, 30 min 37 °C, mean of n = 4) was 28 % of WT GIPR activity, the “logEC50 (cAMP)” value ([1]; HEK293, Hill slope 1.0, mean of n = 4) was -10.9 and the “Mean of ΔBRET” value [2] was 0.0142. For the same substance, the “logEC50 (Arrestin)” value ([3]; Hill slope 1.0) was -8.5, the “Arrestin (Emax)” value ([3]; normalized to WT GIPR) was 20 and the “cAMP (Emax)” value ([4]; HEK293, GIP(1–42) 1 pM–100 nM, 30 min 37 °C, mean of n = 6) was 135 % of WT GIPR activity. The “logEC50 (cAMP)” value ([4]; HEK293, Hill slope 1.0, mean of n = 6) was -10.8, the “logEC50 (Arrestin)” value ([5]; Hill slope 1.0) was -9.2 and the “Arrestin (Emax)” value ([5]; normalized to WT GIPR) was 91. For the same substance, the cAMP production class ([6]; E461* (GoFcAMP)) was “more cAMP production”, the “cAMP (Emax)” value ([6]; E461*, HEK293, GIP(1–42) 1 pM–100 nM, 30 min 37 °C, mean of n = 4) was 179 % of WT GIPR activity and the “logEC50 (cAMP)” value ([6]; E461*, HEK293, Hill slope 1.0, mean of n = 4) was -11.1.
